This is a sample that favours compounds with a hit; in the whole collection about 1.7% have one here.
CAL PDZ FP-1: inhibitors of human CAL PDZ peptide binding. inhibition, % at 24.9 µM. purified CAL PDZ, TMR-peptide fluorescence polarization, 1 h. 300,000 tested, 0.92% active. AID 602252;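 active means mean inhibition of at least 30% with at least half of replicates also reaching 30%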;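 further: 0% = DMSO neutral control and 100% = excess unlabeled competitor peptide PRC23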
Yeast UUG start: alters start codon recognition fidelity in yeast; S. cerevisiae UUG-firefly luciferase reporter, luminescence/redox ratio; activity score, % at 18.7 µM; hit rate 0.13% among 350,000;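 active = replicate mean at a twofold rise or more, about +100% in these data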;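 also: firefly luciferase made from a UUG start codon reports start codon fidelity; reporter light over untreated wells divided by growth signal over untreated wells; some hits fall short of that in this replicate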
Dyrk1A ADPGlo: Dyrk1A (rat) kinase inhibition; inhibition, % at 12.5 µM; Q63470; 310,000 tested, 0.43% active; ADP-Glo luminescence, NFATc1 peptide; in the data active means inhibition above about 50%;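 further: plate controls were vehicle with enzyme for no effect and no enzyme for full effect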
CAL PDZ FP-2: human CAL PDZ-peptide interaction inhibition; Q9HD26; purified CAL PDZ, TMR-peptide fluorescence polarization, 1 h; 330,000 tested, 0.02% active; AID 504414; inhibition, % at 20 µM;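 active means highest replicate inhibition of at least 40%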;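 further: plate controls were DMSO neutral control wells for no effect and unlabeled competitor peptide control wells for full effect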
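Material: tagged CAL PDZ domain; buffer or medium: 25 mM sodium phosphate pH 7.4, 150 mM NaCl, TCEP, IgG, Thesit; compound dosing: single point, 20 µM; schedule: 1 h incubation at room temperature before polarization reading; measured by: FP readout, S and P plane fluorescence; read-out basis: percent inhibition from loss of millipolarization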
dFosB activator: enhances mouse delta FosB homodimer DNA binding; purified delta FosB, TAMRA-CDK5 oligo fluorescence polarization; percent of positive-control signal above neutral wells; activation, % at 25 µM; P13346; 340,000 tested, 0.99% active;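 active means mean activation above about 17%, with every replicate also reaching it, limit read from the data, passing the limit was not always enough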
CDK5 inh: CDK5/p35 (human) kinase inhibition. Q00535+Q15078. Recombinant CDK5/p35, ADP-Glo luminescence, 60 min. inhibition, % at 10 µM. 330,000 tested, 0.01% active;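 active means highest replicate inhibition of at least 50% and at least 75% of replicates reaching 50%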;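 further: plate controls were DMSO neutral control for no effect and GW8510 at 10 µM for full effect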
Starred values were filed as active, the others as inactive.

What do the screens show for `O=C(N/N=C/c1ccoc1)c1cc(Br)ccc1O`?
CAL PDZ FP-1: 0; Yeast UUG start: -3; Dyrk1A ADPGlo: -1; CAL PDZ FP-2: -2; dFosB activator: -4; CDK5 inh: 0

Results for O=C(N/N=C/c1ccoc1)c1ccccc1Br ?
CAL PDZ FP-1: 39*; Yeast UUG start: -12; Dyrk1A ADPGlo: 4; CAL PDZ FP-2: 10; dFosB activator: 4; CDK5 inh: 0

How did O=C(/C=C/c1ccco1)Nc1ccc(C(=O)N2CCOCC2)cc1 do in these assays?
CAL PDZ FP-1: -3; Yeast UUG start: 0; Dyrk1A ADPGlo: -1; CAL PDZ FP-2: 1; dFosB activator: -8; CDK5 inh: 1

Results for O=C(/C=C/c1ccco1)Nc1ccc(N2CCCC2)cc1 ?
CAL PDZ FP-1: -2; Dyrk1A ADPGlo: -6; CAL PDZ FP-2: 1; dFosB activator: 41*; CDK5 inh: 1

Results for Cc1ccc(C)c(NC(=O)CSc2n[nH]c(-c3ccncc3)n2)c1 ?
CAL PDZ FP-1: -1; Yeast UUG start: -8; Dyrk1A ADPGlo: 1; CAL PDZ FP-2: -1; dFosB activator: -5; CDK5 inh: -2

What do the screens show for `Cc1ccc(C)c(NC(=O)CSc2c(C)n[nH]c2C)c1`?
CAL PDZ FP-1: 61*; Yeast UUG start: -1; Dyrk1A ADPGlo: -2; CAL PDZ FP-2: 16; dFosB activator: 3; CDK5 inh: 0

Results for O=C(CN1C(=O)C2CC=CCC2C1=O)Nc1nc2ccccc2[nH]1 (configuration not stated) ?
CAL PDZ FP-1: 47*; Yeast UUG start: -21; Dyrk1A ADPGlo: 18; dFosB activator: -5; CDK5 inh: 0

How did CCOC(=O)CSc1nnc(-c2ccc3ncccc3c2)n1C do in these assays?
CAL PDZ FP-1: active; Dyrk1A ADPGlo: -1; CAL PDZ FP-2: 0; dFosB activator: 8; CDK5 inh: 1

Results for C/C=C/c1cnc2c(c1)C(=O)N([C@H](C)CO)C[C@@H](C)[C@@H](CN(C)C(=O)Nc1ccc(OC)cc1)O2 ?
Yeast UUG start: -1

How did CC1CN(c2ccc([N+](=O)[O-])c(NCCOc3ccc(Cl)cc3)c2)CC(C)N1 (configuration not stated) do in these assays?
CAL PDZ FP-1: -4; Yeast UUG start: -10; Dyrk1A ADPGlo: 2; dFosB activator: 37*; CDK5 inh: 2

How did CCc1ccc(OCCNc2cc(N3CCNC(C)C3)ccc2[N+](=O)[O-])cc1 (configuration not stated) do in these assays?
CAL PDZ FP-1: -3; Yeast UUG start: -8; Dyrk1A ADPGlo: -4; CAL PDZ FP-2: -2; dFosB activator: 45*; CDK5 inh: 0

Results for O=[N+]([O-])c1ccc(N2CCCCC2)cc1NCCOc1ccccc1 ?
CAL PDZ FP-1: -5; Dyrk1A ADPGlo: -8; CAL PDZ FP-2: -2; dFosB activator: 0; CDK5 inh: 0

How did CC1CN(c2ccc([N+](=O)[O-])c(NCCOc3ccccc3)c2)CC(C)N1 (configuration not stated) do in these assays?
CAL PDZ FP-1: -5; Yeast UUG start: -16; Dyrk1A ADPGlo: 11; CAL PDZ FP-2: -1; dFosB activator: 3; CDK5 inh: -2

How did COc1ccc(NC(=O)C2CC(=O)n3c(nc4ccccc43)N2)cc1 (configuration not stated) do in these assays?
CAL PDZ FP-1: -4; Yeast UUG start: -8; Dyrk1A ADPGlo: -6; CAL PDZ FP-2: 0; dFosB activator: 34*; CDK5 inh: -4

What do the screens show for `CC(=O)C1CCC2C3CCC4=CC(=O)C=CC4(C)C3C(=O)CC12C` (configuration not stated)?
CAL PDZ FP-1: -5; Yeast UUG start: -14; Dyrk1A ADPGlo: -2; CAL PDZ FP-2: 1; dFosB activator: -10; CDK5 inh: -1

How did C[C@]12C=CC(=O)C=C1CC[C@@H]1C2=CC[C@]2(C)[C@@H](C(=O)CN3CCN(c4cc(N5CCCC5)nc(N5CCCC5)n4)CC3)CC[C@@H]12 do in these assays?
CAL PDZ FP-1: 21; Yeast UUG start: -16; Dyrk1A ADPGlo: 60*; CAL PDZ FP-2: 0; dFosB activator: 5; CDK5 inh: 1

Results for Nc1nonc1-c1nc2ccccc2n1Cc1ccc(F)cc1Cl ?
CAL PDZ FP-1: active; Yeast UUG start: -19; Dyrk1A ADPGlo: 2; CAL PDZ FP-2: -2; dFosB activator: -2; CDK5 inh: 0

Results for COc1ccc(NC(=O)c2ccc(CNS(=O)(=O)c3cccc(OC)c3)cc2)cc1 ?
CAL PDZ FP-1: 38*; Yeast UUG start: -8; Dyrk1A ADPGlo: 12; CAL PDZ FP-2: -1; dFosB activator: 7; CDK5 inh: 0

Results for COc1cccc(S(=O)(=O)NCc2ccc(C(=O)Nc3ccc(C)cc3)cc2)c1 ?
CAL PDZ FP-1: -1; Yeast UUG start: -20; Dyrk1A ADPGlo: 0; CAL PDZ FP-2: 0; dFosB activator: -6; CDK5 inh: -1

How did CC(=O)Nc1ccc(Oc2nc(-c3cccnc3)nc3sc4c(c23)CCCC4)cc1 do in these assays?
CAL PDZ FP-1: 67*; Yeast UUG start: -12; Dyrk1A ADPGlo: -1; CAL PDZ FP-2: 0; dFosB activator: 7; CDK5 inh: -4

Results for CCN1C(=O)CS/C1=N\S(=O)(=O)c1ccccc1 ?
CAL PDZ FP-1: 76*; Yeast UUG start: -10; Dyrk1A ADPGlo: -4; CAL PDZ FP-2: 0; dFosB activator: -2; CDK5 inh: 0

Results for CCN1C(=O)CS/C1=N\S(=O)(=O)c1ccc(C)cc1 ?
CAL PDZ FP-1: -2; Yeast UUG start: -18; CAL PDZ FP-2: 2; dFosB activator: -3; CDK5 inh: -1

What do the screens show for `COc1ccc(OC(C)C(=O)NCc2cccnc2)cc1` (configuration not stated)?
CAL PDZ FP-1: 46*; Yeast UUG start: -11; dFosB activator: 0; CDK5 inh: 1

How did COc1ccc(S(=O)(=O)N2C(=O)/C(=C3\SC(N)=NC3=O)c3ccccc32)cc1 do in these assays?
CAL PDZ FP-1: -3; Yeast UUG start: -15; Dyrk1A ADPGlo: -7; CAL PDZ FP-2: 2; dFosB activator: 24*; CDK5 inh: -2

What do the screens show for `O=C(N[C@@H]1CC[C@@H](CCn2cc(-c3ccccn3)nn2)O[C@H]1CO)c1ccc(F)cc1`?
Yeast UUG start: -30

Results for NS(=O)(=O)c1ccc(CCNC(=O)COC(=O)c2ccc([N+](=O)[O-])o2)cc1 ?
CAL PDZ FP-1: 10; Yeast UUG start: 11; Dyrk1A ADPGlo: -4; CAL PDZ FP-2: 1; dFosB activator: -11; CDK5 inh: 1

How did NS(=O)(=O)c1ccc(CCNC(=O)COC(=O)Cc2ccc([N+](=O)[O-])cc2)cc1 do in these assays?
CAL PDZ FP-1: 34*; Yeast UUG start: -5; CAL PDZ FP-2: 1; dFosB activator: -8; CDK5 inh: 1

A portion taken from the entries so far, as a working copy:
Results for CCN1C(=O)CS/C1=N\S(=O)(=O)c1ccc(C)cc1 ?
CAL PDZ FP-1: -2; Yeast UUG start: -18; CAL PDZ FP-2: 2; dFosB activator: -3; CDK5 inh: -1

What do the screens show for `COc1ccc(OC(C)C(=O)NCc2cccnc2)cc1` (configuration not stated)?
CAL PDZ FP-1: 46*; Yeast UUG start: -11; dFosB activator: 0; CDK5 inh: 1

How did COc1ccc(S(=O)(=O)N2C(=O)/C(=C3\SC(N)=NC3=O)c3ccccc32)cc1 do in these assays?
CAL PDZ FP-1: -3; Yeast UUG start: -15; Dyrk1A ADPGlo: -7; CAL PDZ FP-2: 2; dFosB activator: 24*; CDK5 inh: -2
